This is an account of results in patent publication US5700446A, “Synthesis of ferrocenyl phenyltropane analogs and their radio-transformation to technetium neuroprobes for mapping monoamine reuptake sites” (Neuro Imaging Technologies, LLC, priority 1996, dated 1997).

Sequences of proteins named here, by UniProt entry; tags and fusion partners are left off.
UniProt P23977, whole entry: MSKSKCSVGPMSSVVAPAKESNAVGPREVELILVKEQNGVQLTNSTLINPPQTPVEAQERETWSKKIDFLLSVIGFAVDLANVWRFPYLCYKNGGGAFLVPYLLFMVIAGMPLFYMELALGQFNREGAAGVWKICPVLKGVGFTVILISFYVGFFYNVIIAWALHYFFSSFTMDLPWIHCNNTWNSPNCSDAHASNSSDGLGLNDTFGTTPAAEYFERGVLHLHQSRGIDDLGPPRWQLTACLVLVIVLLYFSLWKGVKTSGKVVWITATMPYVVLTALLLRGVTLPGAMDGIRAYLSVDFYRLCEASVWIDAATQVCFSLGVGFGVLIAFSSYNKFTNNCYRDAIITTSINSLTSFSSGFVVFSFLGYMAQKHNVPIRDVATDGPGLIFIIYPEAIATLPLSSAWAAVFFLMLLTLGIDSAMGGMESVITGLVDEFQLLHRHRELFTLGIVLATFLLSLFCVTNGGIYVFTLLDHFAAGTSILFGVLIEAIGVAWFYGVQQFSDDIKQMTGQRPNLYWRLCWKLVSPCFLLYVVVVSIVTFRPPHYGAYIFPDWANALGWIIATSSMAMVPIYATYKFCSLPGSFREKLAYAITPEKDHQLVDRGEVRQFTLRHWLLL

For orientation: Kd means the concentration at which binding is half-saturated.

Assay [1] addresses T1, dopamine transporter (Rattus norvegicus, UniProt P23977).
T1 construct: crude membrane fraction of homogenates of rat brain corpus striatum (for the dopamine transporter); from tissue; host or cells: rat brain corpus striatum, crude membrane fraction
Conditions: [3H]GBR-12935, 13 Ci/mmol; read-out: Kd (radioligand, dopamine transporter assay); cited from earlier work.

Assay [2] concerns the target norepinephrine transporter. The settings on record: [3H]nisoxetine, 50 Ci/mmol; read-out: Kd (radioligand, norepinephrine transporter assay); cited from earlier work.
For assay [3], the target named is T1, dopamine transporter. Put plainly: Radioreceptor binding assay, dopamine transporter ([3H]GBR-12935), rat brain corpus striatum membranes. Conditions: ratio of Ki for the dopamine transporter to the Ki for the serotonin transporter.

With `c1ccc(CCCN2CCN(CCOC(c3ccccc3)c3ccccc3)CC2)cc1` [[^3 H]GBR-12935], the Kd on dopamine transporter [1] is 1000 pM. For `CNCCC(Oc1ccccc1OC)c1ccccc1` (stereo not drawn) [[^3 H]nisoxetine], the Kd in assay [2] is 800 pM. Take `COC(=O)[C@H]1[C@@H](c2ccc(I)cc2)C[C@@H]2CC[C@H]1N2C` [β-CIT, 3β-(4-iodophenyl)-2β-(carbomethoxy)tropane, reference compound]: on dopamine transporter [3], the “DAT/5-HTT Selectivity” value was 3.04.
